{
  "source": "patent US20240139349A1",
  "about": "“GADOLINIUM CHELATE, PREPARATION METHOD THEREFOR, AND APPLICATION THEREOF” (SUZHOU ZHECI PHARMACEUTICAL TECHNOLOGY CO., LTD., priority 2021, published 2024)",
  "test": "In vitro MRI determination of longitudinal and transverse relaxation rates (r1, r2) of aqueous solutions",
  "assay_type": "physicochemical",
  "key": {"[1]": {"settings": "H0 3.0 T clinical MRI system (Philips, Ingenia), aqueous solutions"}},
  "data": [
    {"substance": "Gd-HSA: gadolinium chelate of human serum albumin", "values": [
      {"measurement": "r2/r1", "setting": "H0 3.0 T", "result": "1.74±0.02"},
      {"measurement": "r1 (longitudinal relaxation rate)", "setting": "[1]", "result": "34430 ± 540", "unit": "M⁻¹ s⁻¹"},
      {"measurement": "r2 (transverse relaxation rate)", "setting": "[1]", "result": "59920 ± 1570", "unit": "M⁻¹ s⁻¹"}
    ]}
  ]
}
